The subject of assay [1] is CAMP. Put plainly: Induction of CAMP mRNA expression in U937 cells (QRT-PCR, RT-PCR, Northern blot). It is filed as cell-based, human.
Assay [2] has as its system CD11b. The assay is described as follows: Differentiation marker CD11b mRNA in HL60 cells (Northern blot). Conditions: HL-60; 1,25[OH]2D3 1×10^−7 M or TPA 5 ng/ml; 1, 3 or 5 days. Type of assay: cell-based, human.
Assay [3] deals with MPO (myeloperoxidase). The assay is described as follows: Induction of primary granule gene MPO in U937 cells (RT-PCR). The note with it: U937, 1×10^−7 M, 24 h.
Assay [4] has as its system CAMP. The assay is described as follows: Induction of CAMP mRNA expression in HL60 cells (Northern blot).
The subject of assay [5] is MMP8 (matrix metalloproteinase 8). The assay is described as follows: Induction of secondary granule gene MMP8 in U937 cells (RT-PCR). Conditions: U937, 1×10^−7 M, 24 h.

Bounds are passed on as bounds.

Consider `C=C1/C(=C\C=C2/CCC[C@]3(C)[C@@H]([C@H](C)CCCC(C)(C)O)CC[C@@H]23)C[C@@H](O)C[C@@H]1O` [1,25(OH)2D3, 1,25-dihydroxyvitamin D3], for which the “strength of CAMP induction, U937 compared with HL60” value in assay [1] (1×10^−7 M, Northern blot (FIG. 2A)) was “stronger in the U937 cell line”. Besides, in assay [1] (U937, 1×10^−6 M to 1×10^−9 M, 24 h, Northern blot), the “dose responsiveness of CAMP induction” value is “dose responsive”. Further, the “induction of CAMP gene expression in the presence of CHX” value in assay [1] (U937, 1×10^−7 M, 20 μg/ml cyclohexamide, 6 and 9 hours, Northern blot) is given as “Induction of CAMP gene expression occurred in the absence of ongoing protein synthesis”. The “CAMP expression in the granule gene specificity test” value in assay [1] (U937, 1×10^−7 M, 24 h, RT-PCR) is on record as “significantly upregulated”. Besides, the “time at which induction of the CAMP gene occurred” value in assay [1] (U937, 1×10^−7 M, measured at 0, 1, 3, 5 days) is at most 1 days; in assay [4] (HL60, 1×10^−7 M, measured at 0, 1, 3, 5 days) it was at most 1 days. In addition, in assay [1] (U937, 1×10^−7 M, time course 1-24 hours), the “begin of CAMP induction after addition” value was 1 to 3 h. The “induction of CAMP expression” value in assay [1] (U937, initial screen, 24 h, QRT-PCR and Northern blot) was “induced CAMP expression significantly”; in assay [4] (HL60, Northern blot (FIG. 2 and FIG. 3)), “induction was observed”. In addition, the “induction of CAMP mRNA” value in assay [1] (U937, 1,25[OH]2D3 1×10^−7 M or TPA 5 ng/ml, 1, 3 or 5 days, Northern blot) is “observed only with 1,25(OH)2D3”. Moreover, the “duration of CAMP induction” value in assay [1] (five days of treatment) is on record as “continued throughout the five days of treatment”. Moreover, the “macrophage-like differentiation (induction of CD11b)” value in assay [2] is recorded as “promoted macrophage-like differentiation”. Besides, the “induction of MPO” value in assay [3] is given as “No induction of these genes was observed”. In assay [5], the “induction of MMP8” value is “No induction of these genes was observed”.
